{
  "source": "paper PMC12228764",
  "about": "(Nature Communications, 2025)",
  "binders": {"B1": {"name": "DSS1 in the reconstituted DSS1–INTAC complex (pLVX-DSS1-WT co-expressed with INTS1 to INTS14) (natural protein)", "chain": "MSEKKQPVDLGLLEEDDEFEEFPAEDWAGLDEDEDAHVWEDNWDDDNVEDDFSNQLRAELEKHGYKMETS"}},
  "key": {"[1]": {"biological_target": "INTS7 in the reconstituted DSS1–INTAC complex (human)", "experiment": "cryo-EM structure"}, "[2]": {"biological_target": "INTS2 in the reconstituted DSS1–INTAC complex (human)", "experiment": "cryo-EM structure"}},
  "data": [
    {"binder": "B1", "values": [
      {"measurement": "binding result", "setting": "[1]", "value": "binds"},
      {"measurement": "binding result", "setting": "[2]", "value": "binds"}
    ]}
  ]
}
